Patent US20200165312A1, “COSMETIC COMPOSITION FOR IMPROVING SKIN CONDITIONS COMPRISING FUSION PROTEIN INCLUDING SKIN PENETRATION ENHANCING PEPTIDE” (LG HOUSEHOLD & HEALTH CARE LTD., priority 2017, published 2020)

Settings: pig, 16 h

VEGF
Remaining amount (%): 100 ± 24%
